Test results published in patent publication US20100150868A1, “Methods of Individually Optimizing Treatment for an Inflammation Associated Disease” (Tel HaShomer Medical Research Infrastructure and Services …, priority 2005, published 2010).

Columns and labels:
[1] = healthy volunteers, IM administration of 6 MIU; cited from earlier work
[2] = tested on: mitogen-induced PBMC TNF-α production; details: healthy volunteers, cited from earlier work
[3] = tested on: TNF-α secretion of MOG stimulated PBMC; assay: In-vitro TNF-α secretion in PBMC culture with immunomodulatory drug (IDMM, ELISA); type: cell-based, human; details: 40 U/ml
Description: All immunomodulatory drugs used for the treatment of MS patients are known to reduce pro-inflammatory cytokine production and specifically TNF-α. For example, the secretion of TNF-α in a short-term peripheral blood mononuclear cell (PBMC) culture is inhibited by the presence of an immunomodulatory drug. In order to design a method for comparing immunomodulatory drugs for the treatment of MS, PBMCs were specifically stimulated by an MS autoantigen, the encephalitogenic peptide, myelin oligodendrocyte glycoprotein (MOG) so as to induce over-expression of autoreactive cells specific for MS.
As various immunomodulatory drugs are formulated differently and are delivered by different routes of administration, appropriate drug concentrations were established for the IDMM. The in-vitro concentration for each drug was calculated according to the serum levels acquired after in-vivo injections or according to functional equivalent tests. The drug concentrations used in the IDDM are provided below in Table 1.
15 cc of blood was withdrawn from each patient. […]
Following a 48 hour incubation, TNF-α levels were measured in the supernatants by ELISA using commercial kits (R&D).

| Molecule | mean serum activities [1] | suppression of mitogen-induced PBMC TNF-α production ([2]; 6 MIU three times per week) | inhibition of mitogen-induced PBMC TNF-α production ([2]; an injection of 6 MIU (22 μg), dependent on the mitogen) | suppression of TNF-α secretion [3] |
| --- | --- | --- | --- | --- |
| Avonex: IFN-b-1a (Avonex™), immunomodulatory drug for MS | 25 U/ml |  |  |  |
| Rebif: IFN-b-1 a (Rebif™), immunomodulatory drug for MS (protein, UniProt P01574 22-187, looked up, interferon beta-1a, IFN-b-1 a (Rebif™), immunomodulatory drug for MS) Interferon beta: MSYNLLGFLQRSSNFQCQKLLWQLNGRLEYCLKDRMNFDIPEEIKQLQQFQKEDAALTIYEMLQNIFAIFRQDSSSTGWNETIVENLLANVYHQINHLKTVLEEKLEKEDFTRGKLMSSLHLKRYYGRILHYLKAKEYSHCAWTIVRVEILRNFYFINRLTGYLRN |  | 29-38% | 8-13% | 29-38% |
